Experimental data published in patent publication US20030215462A1, “Use of UGT inhibitors to increase bioavailability” (priority 2001, published 2003).

Assays:
[1] = biological target: T1, UGT1A3 (Homo sapiens, UniProt P35503); assay: Inhibition of raloxifene glucuronidation by recombinant UGT1A3 Supersomes
T1 sequence (P35503 29-534): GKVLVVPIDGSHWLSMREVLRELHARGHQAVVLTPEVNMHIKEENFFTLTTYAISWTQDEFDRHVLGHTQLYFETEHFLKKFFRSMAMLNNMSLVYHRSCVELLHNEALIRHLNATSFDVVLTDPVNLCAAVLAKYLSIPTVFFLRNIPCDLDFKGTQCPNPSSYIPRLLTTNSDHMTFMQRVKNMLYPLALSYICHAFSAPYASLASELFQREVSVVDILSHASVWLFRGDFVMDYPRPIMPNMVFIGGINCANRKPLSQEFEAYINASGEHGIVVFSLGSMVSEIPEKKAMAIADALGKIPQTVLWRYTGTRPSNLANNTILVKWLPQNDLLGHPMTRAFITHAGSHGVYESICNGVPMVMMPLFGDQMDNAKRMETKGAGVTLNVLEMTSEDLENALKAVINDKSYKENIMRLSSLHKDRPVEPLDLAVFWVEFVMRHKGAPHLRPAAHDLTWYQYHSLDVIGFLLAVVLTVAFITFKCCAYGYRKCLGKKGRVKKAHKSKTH

[2] = biological target: T2, UGT1A9 (Homo sapiens, UniProt O60656); assay: Inhibition of raloxifene glucuronidation by recombinant UGT1A9 Supersomes
T2 sequence (O60656 26-530): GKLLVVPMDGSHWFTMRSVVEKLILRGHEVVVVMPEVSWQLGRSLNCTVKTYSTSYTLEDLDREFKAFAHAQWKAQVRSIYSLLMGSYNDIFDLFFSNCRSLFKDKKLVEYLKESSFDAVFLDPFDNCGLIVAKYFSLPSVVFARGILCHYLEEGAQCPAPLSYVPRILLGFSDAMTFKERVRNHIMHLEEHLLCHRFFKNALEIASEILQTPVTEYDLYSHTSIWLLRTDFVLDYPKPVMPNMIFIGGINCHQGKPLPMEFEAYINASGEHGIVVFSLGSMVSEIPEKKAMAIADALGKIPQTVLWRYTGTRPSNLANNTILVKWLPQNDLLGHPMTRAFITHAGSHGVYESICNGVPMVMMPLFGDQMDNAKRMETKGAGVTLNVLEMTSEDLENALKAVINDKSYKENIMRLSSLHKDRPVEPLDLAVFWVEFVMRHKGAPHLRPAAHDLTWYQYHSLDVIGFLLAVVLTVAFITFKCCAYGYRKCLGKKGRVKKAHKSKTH

[3] = HIV-infected patients; cited from earlier work

inhibition of raloxifene glucuronidation, in words [1] | inhibition of raloxifene glucuronidation, in words [2] | Compound | increase in zidovudine plasma AUC on co-administration [3] [fold]
poor inhibitors | poor inhibitors | O=C(O)Cc1ccccc1Nc1c(Cl)cccc1Cl [Diclofenac, reference compound] | 
 |  | CCCC(CCC)C(=O)O [Valproic acid] | 2
